According to PubChem BioAssay AID1645886 (National Center for Advancing Translational Sciences (NCATS), 2021):
This is a selection; strong and weak results do not stand in their true shares. Results filed as inconclusive are left out. Active and inactive are the calls of the source. Calls follow the shape of the dose curve; as a rule, active = well fitted inhibition curve with a large enough effect; inconclusive = small, poorly fitted or top-dose-only effect; inactive = no such curve, though single readings can be large or run the other way.

Chains of the proteins cited; added tags and fusions are not shown.
UniProt Q8WZA2, whole entry: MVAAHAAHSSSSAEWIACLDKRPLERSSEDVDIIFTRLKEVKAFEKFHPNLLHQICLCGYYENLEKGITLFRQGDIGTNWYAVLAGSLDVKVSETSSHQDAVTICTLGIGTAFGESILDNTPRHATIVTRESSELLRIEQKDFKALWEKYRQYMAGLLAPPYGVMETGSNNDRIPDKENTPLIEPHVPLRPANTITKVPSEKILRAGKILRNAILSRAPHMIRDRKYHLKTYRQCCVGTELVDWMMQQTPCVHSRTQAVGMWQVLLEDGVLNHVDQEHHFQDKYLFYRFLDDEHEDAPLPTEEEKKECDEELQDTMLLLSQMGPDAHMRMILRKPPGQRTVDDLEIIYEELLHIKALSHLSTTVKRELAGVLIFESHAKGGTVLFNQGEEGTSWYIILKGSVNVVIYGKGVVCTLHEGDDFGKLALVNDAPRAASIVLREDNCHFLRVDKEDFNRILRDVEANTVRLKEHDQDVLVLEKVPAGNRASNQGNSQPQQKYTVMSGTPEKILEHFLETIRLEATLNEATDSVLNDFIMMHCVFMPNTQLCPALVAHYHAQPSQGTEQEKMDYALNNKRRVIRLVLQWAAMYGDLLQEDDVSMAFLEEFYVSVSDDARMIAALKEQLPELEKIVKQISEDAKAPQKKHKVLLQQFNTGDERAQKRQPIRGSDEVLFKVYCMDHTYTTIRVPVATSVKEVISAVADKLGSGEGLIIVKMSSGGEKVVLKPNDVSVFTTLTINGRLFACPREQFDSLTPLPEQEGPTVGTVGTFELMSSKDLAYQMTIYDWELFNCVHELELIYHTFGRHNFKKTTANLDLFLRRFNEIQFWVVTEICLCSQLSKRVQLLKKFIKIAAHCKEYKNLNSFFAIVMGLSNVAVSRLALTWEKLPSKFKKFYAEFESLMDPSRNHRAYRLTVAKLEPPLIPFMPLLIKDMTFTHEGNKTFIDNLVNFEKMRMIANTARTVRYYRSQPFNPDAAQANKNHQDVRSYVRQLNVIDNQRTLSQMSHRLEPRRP

What follows are compounds tested against Rap guanine nucleotide exchange factor 4 (Homo sapiens) (UniProt Q8WZA2) (assay: Validation qHTS for antagonist of cAMP-regulated guanine nucleotide exchange factor 4 (EPAC2)). Details: EPAC2 Rap1B BODIPY-GDP exchange, fluorescence; at 239 µM (top of the series).
From the text: Principle Investigator: Xiaodong Cheng Ph.D. The University of Texas Medical Branch, […], TX MLPCN Grant: NS066510 In multi-cellular eukaryotic organisms, the effects of cAMP are transduced by two ubiquitously-expressed intracellular cAMP receptors, the classic protein kinase A/cAMP-dependent protein kinase (PKA/cAPK) and the more recently discovered exchange protein directly activated by cAMP/cAMP-regulated guanine nucleotide exchange factor (EPAC/cAMP-GEF). Both PKA and EPAC are ubiquitously expressed in all tissues, and an increase in intracellular cAMP levels will lead to the activation of both PKA and EPAC. […] This qHTS will be used to screen the Molecular Libraries Small Molecule Repository (MLSMR) as a concentration-titration series using the NCGC unique quantitative screening (qHTS) platform to find activators for EPAC1. […] Activators are identified by monitoring the change in fluorescence signal as the exchanged free BODIPY-GDP has a reduced fluorescence compared to Rap1-bound BODIPY-GDP. […]
Briefly, three uL of reagents (100 nM EPAC2, 250 nM RAP1B-BODIPY-GDP, 50 uM GDP) were dispensed into a 1536-well Greiner black solid-bottom medium binding assay plate. […] The assay plates were read at 5 minute intervals for 30 minutes in the ViewLux plate reader using 480nm excitation and 540nm emission filters. […]
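Also: 100% = activation by cAMP agonist control; nearly all actives have a fitted effect of over 40% in size.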

**Q.** With Cc1cc([N+](=O)[O-])cc([N+](=O)[O-])c1O as the compound, how does the activity, negative = inhibition read?
**A.** Its activity, negative = inhibition is inactive: -27.8%.
